Measurements reported in ChEMBL document CHEMBL3885881, “DrugMatrix”.

Species: Rattus norvegicus
Assay: DrugMatrix - Regimen: Daily Repeat
Assay type: toxicity, organism-based, Sprague-Dawley
Set-up: regimen Daily Repeat, gender Male, age 6-8 weeks
Settings: in vivo, po, tissue Plasma, route oral GAVAGE, dose level High
[1] = 33 mg/kg, 72 h, time 3 day, vehicle .5 % CMC

| Sequence | CHLORIDE ([…], dose 2.5 mg/Kg, time 14 day, vehicle 100 % WATER) | CHLORIDE [1] | POTASSIUM [1] |
| --- | --- | --- | --- |
| MERCURIC CHLORIDE | 104.6 MEQ/L |  |  |
| AURANOFIN |  | 105 MEQ/L | 6.89 MEQ/L |
